For one experiment, the target named is CBP BRD protein (Homo sapiens, UniProt Q92793). The experiment can be described thus: CBP inhibitory activity, TR-FRET assay of CBP bromodomain with Ac-H4 peptide. Conditions: read-out: CBP BRD IC50, CBP BRD protein 7.5 nM, Ac-H4 peptide 85 nM, 2 hours at room temperature. A general note: In TR-FRET formats the signal depends on donor and acceptor labels being close together.

Protein sequences, listed by entry. Tags and fused reporters are not part of them. Residues count along the entry.
UniProt Q92793, 1085-1192 limits assumed: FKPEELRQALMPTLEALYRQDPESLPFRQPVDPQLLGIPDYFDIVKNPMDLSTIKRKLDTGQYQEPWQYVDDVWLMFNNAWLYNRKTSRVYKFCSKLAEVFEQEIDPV

Another experiment deals with BRD4 (BD1) protein (Homo sapiens, UniProt O60885). The experiment is described as follows: BRD4 inhibitory activity, TR-FRET assay of BRD4 bromodomain with Ac-H4 peptide. Conditions: read-out: BRD4 (BD1) IC50, BRD4 (BD1) protein 7.5 nM, Ac-H4 peptide 15 nM, 2 hours at room temperature.

Each structure is given as a SMILES string.

As usually defined, the IC50 is the midpoint of a concentration-inhibition curve.

In the case of `CN(C)c1cccc(-c2ccc3c(c2)nc(-c2cncn2C)n3-c2ccc3c(c2)n(C)c(=O)n3C)c1`, the IC50 at CBP BRD protein is < 0.5 µM; on BRD4 (BD1) protein, > 5 µM.
For `CNC(=O)c1ccc(-c2ccc3c(c2)nc(C2CCNCC2)n3-c2ccc3c(c2)n(C)c(=O)n3C)cc1F` the same measures were > 5 µM and > 5 µM.
The matching figures for `CNC(=O)c1ccc(-c2ccc3c(c2)nc(-c2cccc(-c4cnn(C)c4)c2C)n3-c2ccc3c(c2)n(C)c(=O)n3C)cc1F`: 0.5 to 5 µM and > 5 µM.
The matching figures for `CNC(=O)c1ccc(-c2ccc3c(c2)nc(-c2cncn2C)n3-c2ccc3c(c2)n(C)c(=O)n3C)cc1`: < 0.5 µM and 0.5 to 5 µM.
As to `CNC(=O)c1ccc(-c2ccc3c(c2)nc(C(F)(F)F)n3-c2ccc3c(c2)n(C)c(=O)n3C)cc1F`, the IC50 is 0.5 to 5 µM at CBP BRD protein and > 5 µM on BRD4 (BD1) protein.
For `CNC(=O)c1c(F)cc(-c2ccc3c(c2)nc(-c2cncn2C)n3-c2ccc3c(c2)n(C)c(=O)n3C)cc1F`, the IC50 at CBP BRD protein and on BRD4 (BD1) protein was 0.5 to 5 µM throughout.
Consider `CNC(=O)c1ccc(-c2ccc3c(c2)nc(C(C)(C)C(=O)Nc2ccccc2)n3-c2ccc3c(c2)n(C)c(=O)n3C)cc1F`, for which the IC50 at CBP BRD protein and at BRD4 (BD1) protein was > 5 µM in each case.
`CNC(=O)c1ccc(-c2ccc3c(c2)nc(C(C)(C)NC(=O)OC(C)(C)C)n3-c2ccc3c(c2)n(C)c(=O)n3C)cc1F`: the IC50 at CBP BRD protein and on BRD4 (BD1) protein was > 5 µM each time.
Regarding `CNC(=O)c1ccc2c(c1)nc(-c1c[nH]c3cc(C)ccc13)n2-c1ccc2c(c1)n(C)c(=O)n2C`, the IC50 on CBP BRD protein was 0.5 to 5 µM; at BRD4 (BD1) protein, > 5 µM.
The matching figures for `Cn1cncc1-c1nc2cc(-c3cccc(F)c3)ccc2n1-c1ccc2c(c1)n(C)c(=O)n2C`: 0.5 to 5 µM and > 5 µM.
The matching figures for `CNC(=O)c1ccc(-c2ccc3c(c2)nc(C2CCN(C(=O)OC(C)(C)C)CC2)n3-c2ccc3c(c2)n(C)c(=O)n3C)cc1F`: > 5 µM and > 5 µM.
For `CNC(=O)c1ccc(-c2ccc3c(c2)nc(Cc2ccccc2)n3-c2ccc3c(c2)n(C)c(=O)n3C)cc1F` the same measures were > 5 µM and > 5 µM.
Consider `Cn1cncc1-c1nc2cc(-c3ccc(O)c(F)c3)ccc2n1-c1ccc2c(c1)n(C)c(=O)n2C`, for which the IC50 is < 0.5 µM on CBP BRD protein and 0.5 to 5 µM on BRD4 (BD1) protein.
The matching figures for `CNC(=O)c1ccc(-c2ccc3c(c2)nc(-c2cncn2C)n3-c2ccc3c(c2)n(C)c(=O)n3C)cc1F`: < 0.5 µM and 0.5 to 5 µM.
The matching figures for `Cn1cncc1-c1nc2cc(C3=NCCS3)ccc2n1-c1ccc2c(c1)n(C)c(=O)n2C`: < 0.5 µM and > 5 µM.
The matching figures for `Cn1cncc1-c1nc2cc(-c3ccnc(F)c3)ccc2n1-c1ccc2c(c1)n(C)c(=O)n2C`: 0.5 to 5 µM and > 5 µM.
For `Cn1cncc1-c1nc2cc(-c3ccccc3)ccc2n1-c1ccc2c(c1)n(C)c(=O)n2C`, the figures for the IC50 on CBP BRD protein and on BRD4 (BD1) protein were 0.5 to 5 µM and > 5 µM, respectively.
With `CNC(=O)c1ccc(-c2ccc3c(c2)nc(-c2cccc(C4CC4)c2C)n3-c2ccc3c(c2)n(C)c(=O)n3C)cc1F`, the IC50 is < 0.5 µM at CBP BRD protein and > 5 µM on BRD4 (BD1) protein.
For the molecule `Cc1noc(C)c1-c1ccc2c(c1)nc(-c1cncn1C)n2-c1ccc2c(c1)n(C)c(=O)n2C`, the IC50 is 0.5 to 5 µM on CBP BRD protein and > 5 µM on BRD4 (BD1) protein.
`CNC(=O)c1ccc(-c2ccc3c(c2)nc(-c2ccncc2)n3-c2ccc3c(c2)n(C)c(=O)n3C)cc1F`: the IC50 at CBP BRD protein and on BRD4 (BD1) protein was > 5 µM each time.
`Cn1cncc1-c1nc2cc(-c3cccc(O)c3)ccc2n1-c1ccc2c(c1)n(C)c(=O)n2C`: the IC50 at CBP BRD protein is < 0.5 µM; on BRD4 (BD1) protein, > 5 µM.
With `CN(C)C(=O)c1ccc(-c2ccc3c(c2)nc(-c2cncn2C)n3-c2ccc3c(c2)n(C)c(=O)n3C)cc1`, the IC50 at CBP BRD protein is < 0.5 µM; at BRD4 (BD1) protein, > 5 µM.
Turning to `COC(=O)c1ccc(-c2ccc3c(c2)nc(-c2cncn2C)n3-c2ccc3c(c2)n(C)c(=O)n3C)cc1`, the results for the IC50 at CBP BRD protein and on BRD4 (BD1) protein were < 0.5 µM and > 5 µM, respectively.
For `CNC(=O)c1ccc(-c2ccc3c(c2)nc(-c2cncnc2)n3-c2ccc3c(c2)n(C)c(=O)n3C)cc1F` the same measures were 0.5 to 5 µM and > 5 µM.
The matching figures for `Cn1cncc1-c1nc2cc(-c3ccc(NC(=O)c4ccccc4)cc3)ccc2n1-c1ccc2c(c1)n(C)c(=O)n2C`: < 0.5 µM and 0.5 to 5 µM.
For `Cn1cncc1-c1nc2cc(-c3ccc(C(=O)O)cc3)ccc2n1-c1ccc2c(c1)n(C)c(=O)n2C` the same measures were < 0.5 µM and > 5 µM.
Regarding `COC(=O)c1ccc(-c2ccc3c(c2)nc(-c2cncn2C)n3-c2ccc3c(c2)n(C)c(=O)n3C)cn1`, the IC50 at CBP BRD protein was < 0.5 µM; at BRD4 (BD1) protein it was > 5 µM.
For the molecule `CNC(=O)c1ccc(-c2ccc3c(c2)nc(-c2cccnc2OC)n3-c2ccc3c(c2)n(C)c(=O)n3C)cc1F`, the values for the IC50 on CBP BRD protein and on BRD4 (BD1) protein were < 0.5 µM and > 5 µM, respectively.
The matching figures for `Cn1cncc1-c1nc2cc(-c3ccc(=O)[nH]c3)ccc2n1-c1ccc2c(c1)n(C)c(=O)n2C`: < 0.5 µM and 0.5 to 5 µM.
The matching figures for `CNC(=O)c1ccc(-c2ccc3c(c2)nc(-c2ccsc2C)n3-c2ccc3c(c2)n(C)c(=O)n3C)cc1F`: < 0.5 µM and > 5 µM.
The matching figures for `Cn1cncc1-c1nc2cc(C(N)=NO)ccc2n1-c1ccc2c(c1)n(C)c(=O)n2C`: > 5 µM and > 5 µM.
On to `Cn1cncc1-c1nc2cc(-c3ccc(O)cc3)ccc2n1-c1ccc2c(c1)n(C)c(=O)n2C`, for which the IC50 on CBP BRD protein is < 0.5 µM; at BRD4 (BD1) protein it was > 5 µM.
The matching figures for `CNC(=O)c1ccc(-c2ccc3c(c2)nc(-c2ccc(O)nc2)n3-c2ccc3c(c2)n(C)c(=O)n3C)cc1F`: > 5 µM and 0.5 to 5 µM.
For `Cn1cncc1-c1nc2cc(-c3cc[nH]c(=O)c3)ccc2n1-c1ccc2c(c1)n(C)c(=O)n2C` the same measures were < 0.5 µM and > 5 µM.
For `CNC(=O)c1ccc(-c2ccc3c(c2)nc(-c2cccc(NCCN(C)C)c2C)n3-c2ccc3c(c2)n(C)c(=O)n3C)cc1F` the same measures were 0.5 to 5 µM and > 5 µM.
As to `CNC(=O)c1ccc(-c2ccc3c(c2)nc(-c2cccc(Cl)c2Cl)n3-c2ccc3c(c2)n(C)c(=O)n3C)cc1F`, the IC50 at CBP BRD protein is 0.5 to 5 µM; at BRD4 (BD1) protein it was > 5 µM.
For `Cn1cncc1-c1nc2cc(-c3ccc(C(N)=O)cc3)ccc2n1-c1ccc2c(c1)n(C)c(=O)n2C` the same measures were < 0.5 µM and > 5 µM.
The matching figures for `Cn1cncc1-c1nc2cc(-c3ccc4[nH]cnc4c3)ccc2n1-c1ccc2c(c1)n(C)c(=O)n2C`: < 0.5 µM and > 5 µM.
Consider `CNC(=O)c1ccc(-c2ccc3c(c2)nc(-c2cccnc2N)n3-c2ccc3c(c2)n(C)c(=O)n3C)cc1F`, for which the IC50 at CBP BRD protein was 0.5 to 5 µM; on BRD4 (BD1) protein it was > 5 µM.
For `CNS(=O)(=O)c1ccc2c(c1)nc(-c1c[nH]c3cc(C)ccc13)n2-c1ccc2c(c1)n(C)c(=O)n2C` the same measures were > 5 µM and > 5 µM.
The matching figures for `Cn1cncc1-c1nc2cc(-c3cn(CC(=O)NCC(F)(F)F)nn3)ccc2n1-c1ccc2c(c1)n(C)c(=O)n2C`: 0.5 to 5 µM and > 5 µM.
For `Cn1cncc1-c1nc2cc(-c3cccnc3)ccc2n1-c1ccc2c(c1)n(C)c(=O)n2C` the same measures were 0.5 to 5 µM and > 5 µM.
Regarding `CNC(=O)c1ccc(-c2ccc3c(c2)nc(-c2cncc(C)c2)n3-c2ccc3c(c2)n(C)c(=O)n3C)cc1F`, the IC50 at CBP BRD protein is 0.5 to 5 µM; at BRD4 (BD1) protein, > 5 µM.
Take `Cn1cncc1-c1nc2cc(-c3ccc(N)cc3)ccc2n1-c1ccc2c(c1)n(C)c(=O)n2C`: the IC50 is < 0.5 µM on CBP BRD protein and 0.5 to 5 µM on BRD4 (BD1) protein.
For `Cc1ccc(-c2ccc3c(c2)nc(-c2cncn2C)n3-c2ccc3c(c2)n(C)c(=O)n3C)o1` the same measures were 0.5 to 5 µM and > 5 µM.
For `Cn1cncc1-c1nc2cc(-c3ccc4c(c3)OCCO4)ccc2n1-c1ccc2c(c1)n(C)c(=O)n2C` the same measures were < 0.5 µM and > 5 µM.
The matching figures for `CNC(=O)c1ccc(-c2ccc3c(c2)nc(-c2cnccc2C)n3-c2ccc3c(c2)n(C)c(=O)n3C)cc1F`: 0.5 to 5 µM and > 5 µM.
Consider `CCN1CCC(c2ccc3c(c2)nc(-c2c[nH]c4cc(C)ccc24)n3-c2ccc3c(c2)n(C)c(=O)n3C)CC1`, for which the IC50 on CBP BRD protein was 0.5 to 5 µM; at BRD4 (BD1) protein it was > 5 µM.
The matching figures for `Cn1cncc1-c1nc2cc(-c3cncnc3)ccc2n1-c1ccc2c(c1)n(C)c(=O)n2C`: 0.5 to 5 µM and > 5 µM.
As to `CNC(=O)c1ccc(-c2ccc3c(c2)nc(C(C)C)n3-c2ccc3c(c2)n(C)c(=O)n3C)cc1F`, the IC50 at CBP BRD protein was 0.5 to 5 µM; at BRD4 (BD1) protein, > 5 µM.
The matching figures for `Cn1cncc1-c1nc2cc(-c3cccc(N)c3)ccc2n1-c1ccc2c(c1)n(C)c(=O)n2C`: < 0.5 µM and 0.5 to 5 µM.
The matching figures for `CNC(=O)c1ccc(-c2ccc3c(c2)nc(-c2cccc(Cl)c2)n3-c2ccc3c(c2)n(C)c(=O)n3C)cc1F`: 0.5 to 5 µM and > 5 µM.
For `Cn1cncc1-c1nc2cc(Nc3ccccc3)ccc2n1-c1ccc2c(c1)n(C)c(=O)n2C` the same measures were 0.5 to 5 µM and > 5 µM.
Take `CNC(=O)c1ccc(-c2ccc3c(c2)nc(-c2ccccc2Cl)n3-c2ccc3c(c2)n(C)c(=O)n3C)cc1F`: the IC50 at CBP BRD protein was 0.5 to 5 µM; on BRD4 (BD1) protein, > 5 µM.
For `CNC(=O)c1ccc(-c2ccc3c(c2)nc(-c2[nH]cnc2C)n3-c2ccc3c(c2)n(C)c(=O)n3C)cc1F` the same measures were 0.5 to 5 µM and 0.5 to 5 µM.
For `Cn1cncc1-c1nc2cc(-c3cnn(CCO)c3)ccc2n1-c1ccc2c(c1)n(C)c(=O)n2C` the same measures were 0.5 to 5 µM and > 5 µM.
